Experimental data published in US6525214B1, “Therapeutic agent” (priority 1991, dated 2003).

Test: Water uptake of the solid
Assay type: physicochemical
Settings: solid dihydrate

Absorption of further water by the solid: does not absorb further water
SMILES: CC(C)Cc1ccc([C@H](C)C(=O)[O-])cc1.O.O.[Na+] [S(−)sodium 2-(4-isobutylphenyl)propionate dihydrate]
